{"source": "paper PMC7564282", "about": "“Juniperonic Acid Biosynthesis is Essential in Caenorhabditis elegans Lacking Δ6 Desaturase (fat-3) and Generates New ω-3 Endocannabinoids” (Cells, 2020)", "system": "MAGL", "test": "Competitive [3H]2-OG hydrolysis assay in pig brain homogenate", "format": "biochemical", "procedure": "Enzymatic hydrolysis assay of novel ECs: the enzymatic hydrolysis of the ethanolamine derivatives JEA and ω-3 AEA and the glycerol derivatives 1/2-JG and ω-3 1/2-AG was evaluated in competitive hydrolysis assays using [^3H] AEA and [^3H] 2-OG, respectively. The reaction was performed using worm homogenate (200 or 100 µg per sample) or pig brain homogenate (200 µg per sample) in 194 μL of assay buffer (10 mM Tris-HCl, 1 mM EDTA, 0.1 % BSA, pH 8.0). Different concentrations of JEA and ω-3 AEA were co-incubated for 20 min at 37 °C with a mixture of 1 nM [^3H]AEA and unlabeled AEA (final 2µM), while 1/2-JG and ω-3 1/2-AG were co-incubated with a mixture of 1nM [^3H]2-OG and unlabeled 2-OG (final 100 nM). The reaction was stopped by adding 400 μL of ice-cold mixture CHCl3-CH3OH (1:1 v/v), and, subsequently, tubes were vortexed and centrifuged for 10 min at 4 °C and 10,000 rpm. Finally, the upper aqueous phase was transferred to scintillation vials and mixed with 3 mL of Ultima Gold scintillation liquid. Signal was detected with TRICARB 2100TR scintillation counter and results were analyzed with GraphPad Prism 5® and expressed as [^3H] AEA or [^3H] 2-OG hydrolysis (% of vehicle).", "data": [{"substance": "Omega-3 1/2-arachidonoyl glycerol [ω-3 1/2-AG]", "values": [{"measurement": "hydrolysis by MAGL (competition with tritiated 2-OG)", "result": "readily hydrolyzed"}]}]}
